Experimental findings from ChEMBL document CHEMBL3399959, “Transporter-mediated tissue targeting of therapeutic molecules in drug discovery” (Bioorg Med Chem Lett, 2015) are described below.

Data set [1] concerns Nucleic Acid. The experiment in a line: Ratio of drug uptake in liver to muscle in rat. It is filed as ADME, tissue-based. Conditions: in vivo.
Data set [2] has as its system Nucleic Acid. The experiment in a line: Ratio of drug uptake in liver to plasma in rat. It is filed as ADME, tissue-based. Conditions: other tissue.

As for `CC(C)c1c(C(=O)Nc2ccccc2)c(-c2ccccc2)c(-c2ccc(F)cc2)n1CC[C@@H](O)C[C@@H](O)CC(=O)O` [ATORVASTATIN], the Ratio turned out to be 160 in data set [1] and 50 in data set [2].
